Measurements: patent US12246067B2, “Neoantigens and uses thereof” (priority 2018, dated 2025)

Columns and labels:
[1] = molecular target: HLA-A03:01 (Homo sapiens, UniProt P04439); assay type: binding
[2] = molecular target: HLA-A11:01 (Homo sapiens, UniProt P04439, A114D/D185E/E176A/F33Y/L180Q/S129P/T187R); assay type: binding
[3] = molecular target: T1, 293T cells expressing an HLA-A11:01 protein (Homo sapiens, UniProt P04439, A114D/D185E/E176A/F33Y/L180Q/S129P/T187R); assay type: cell-based
T1 construct: expressed in transfected cells

VVVGACGVGK
Measured stability [1]: 2.5 h
Measured stability [2]: 15.7 h
Detection of HLA-presented peptide by mass spectrometry [3]: detected by mass spectrometry
